From ChEMBL document CHEMBL4017477, “Synthesis and evaluation of 4,6-disubstituted pyrimidines as CNS penetrant pan-muscarinic antagonists with a novel chemotype” (Bioorg Med Chem Lett, 2017)

Chains of the proteins cited; added tags and fusions are not shown.
UniProt P08173, whole entry: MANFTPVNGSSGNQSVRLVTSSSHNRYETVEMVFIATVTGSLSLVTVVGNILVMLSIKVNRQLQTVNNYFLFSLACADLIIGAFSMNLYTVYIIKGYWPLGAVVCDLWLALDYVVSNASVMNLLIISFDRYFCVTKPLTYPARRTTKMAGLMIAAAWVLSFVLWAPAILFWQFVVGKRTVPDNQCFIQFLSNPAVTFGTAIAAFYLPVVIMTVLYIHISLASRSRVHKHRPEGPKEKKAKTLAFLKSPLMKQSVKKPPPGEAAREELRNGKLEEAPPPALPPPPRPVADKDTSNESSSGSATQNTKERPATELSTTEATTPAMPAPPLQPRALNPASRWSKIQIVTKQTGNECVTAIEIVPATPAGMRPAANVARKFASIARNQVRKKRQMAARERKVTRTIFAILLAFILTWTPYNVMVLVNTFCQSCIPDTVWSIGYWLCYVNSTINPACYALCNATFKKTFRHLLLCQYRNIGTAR

Molecular target: Muscarinic acetylcholine receptor M4 (Homo sapiens, UniProt P08173)
Assay: Antagonist activity at recombinant human M4 receptor expressed in CHO cells co-expressing Gqi5 by calcium mobilization assay
Format: functional, cell-based

IC50 (read-out: IC50) | IC50 (read-out: pIC50 (converted)) | Structure (SMILES)
2720 nM | – | O=C(C1CCN(c2cc(Oc3c(F)cccc3F)ncn2)CC1)N1CCc2ccccc2C1
710 nM | 692 nM | O=C(C1CCN(c2cc(Oc3ccc4ccccc4c3)ncn2)CC1)N1CCc2ccccc2C1
